Source: US11691963B2, “6-heteroaryloxy benzimidazoles and azabenzimidazoles as JAK2 inhibitors” (Ajax Therapeutics, Inc., priority 2020, dated 2023)

Sequences of proteins named here, by UniProt entry; tags and fusion partners are left off. Residues count along the entry.
UniProt O60674, 849-1124 Y1007F/Y1008F: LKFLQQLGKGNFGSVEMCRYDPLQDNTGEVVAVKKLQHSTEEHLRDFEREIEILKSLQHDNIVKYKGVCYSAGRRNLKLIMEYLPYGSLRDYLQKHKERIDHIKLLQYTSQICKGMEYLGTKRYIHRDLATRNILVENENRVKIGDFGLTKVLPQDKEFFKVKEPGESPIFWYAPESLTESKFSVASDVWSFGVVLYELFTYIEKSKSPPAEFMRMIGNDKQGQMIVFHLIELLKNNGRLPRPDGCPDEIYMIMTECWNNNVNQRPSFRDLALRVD

These compounds were tested against JAK2 (JH1domain-catalytic, Y1007F,Y1008F) kinase (Homo sapiens (Human), UniProt O60674, Y1007F/Y1008F). Conditions: read-out: JAK2 Kd.
Work on `CC(=O)Nc1cc(Oc2ccc3nc(Nc4cc(C(C)(C)C)n([C@H]5C[C@H](O)C5)n4)n(C)c3c2)ccn1` [Example I-29, N-(4-((2-((5-(tert-butyl)-1-((1r,3r)-3-hydroxycyclobutyl)-1H-pyrazol-3-yl)amino)-1-methyl-1H-benzo[d]imidazol-6-yl)oxy)pyridin-2-yl)acetamide] yielded a Kd of less than 0.01 µM.
In the case of `CC(=O)Nc1cc(Oc2ccc3nc(Nc4cc(C(F)(F)F)n(C[C@H]5CC[C@@H](O)CC5)n4)n(C)c3c2)ccn1` [Example I-35, N-(4-((2-((1-(((1s,4s)-4-hydroxycyclohexyl)methyl)-5-(trifluoromethyl)-1H-pyrazol-3-yl)amino)-1-methyl-1H-benzo[d]imidazol-6-yl)oxy)pyridin-2-yl)acetamide], the Kd is reported as 0.05 to 1 µM.
`CC(=O)Nc1cc(Oc2ccc3nc(Nc4cc5n(n4)CCCC5(C)C)n(C)c3c2)ccn1` [Example I-40, N-(4-((2-((4,4-dimethyl-4,5,6,7-tetrahydropyrazolo[1,5-c]pyridin-2-yl)amino)-1-methyl-1H-benzo[d]imidazol-6-yl)oxy)pyridin-2-yl)acetamide] gave a Kd of less than 0.01 µM.

Same assay, conditions: read-out: JAK2 Kd; JAK2 JH1 domain-catalytic, Y1007F,Y1008F; qPCR readout
`CC(=O)Nc1cc(Oc2ccc3nc(Nc4cc(C(C)(C)C)n([C@H]5CCOC5)n4)n(C)c3c2C#N)ccn1` [Example I-21, (S)—N-(4-((2-((5-(tert-butyl)-1-(tetrahydrofuran-3-yl)-1H-pyrazol-3-yl)amino)-7-cyano-1-methyl-1H-benzo[d]imidazol-6-yl)oxy)pyridin-2-yl)acetamide] was tested, and the Kd was less than 0.01 µM.
For `CC(=O)Nc1cc(Oc2ccc3nc(Nc4cc(C(C)(C)C)n([C@@H]5CCOC5)n4)n(C)c3c2)ccn1` [Example I-24, (R)—N-(4-((2-((5-(tert-butyl)-1-(tetrahydrofuran-3-yl)-1H-pyrazol-3-yl)amino)-1-methyl-1H-benzo[d]imidazol-6-yl)oxy)pyridin-2-yl)acetamide], the Kd was less than 0.01 µM.
In the case of `CC(=O)Nc1cc(Oc2ccc3nc(Nc4cc(C(C)(C)C)n([C@@H]5CCOC5)n4)n(C)c3c2C#N)ccn1` [Example I-25, (R)—N-(4-((2-((5-(tert-butyl)-1-(tetrahydrofuran-3-yl)-1H-pyrazol-3-yl)amino)-7-cyano-1-methyl-1H-benzo[d]imidazol-6-yl)oxy)pyridin-2-yl)acetamide], the Kd is reported as less than 0.01 µM.
Compound `CC(=O)Nc1cc(Oc2ccc3nc(Nc4cc(C(C)(C)C)n([C@@H]5CCOC5)n4)n(C)c3n2)ccn1` [Example I-26, (R)—N-(4-((2-((5-(tert-butyl)-1-(tetrahydrofuran-3-yl)-1H-pyrazol-3-yl)amino)-3-methyl-3H-imidazo[4,5-b]pyridin-5-yl)oxy)pyridin-2-yl)acetamide] has a Kd of less than 0.01 µM.
In the case of `CC(=O)Nc1cc(Oc2ccc3nc(Nc4cc(C(C)(C)C)n(C5CCOCC5)n4)n(C)c3c2)ccn1` [Example I-27, N-(4-((2-((5-(tert-butyl)-1-(tetrahydro-2H-pyran-4-yl)-1H-pyrazol-3-yl)amino)-1-methyl-1H-benzo[d]imidazol-6-yl)oxy)pyridin-2-yl)acetamide], the Kd is reported as less than 0.01 µM.
For `CC(=O)Nc1cc(Oc2ccc3nc(Nc4cc(C(C)(C)C)n(CC5COC5)n4)n(C)c3c2)ccn1` [Example I-31, N-(4-((2-((5-(tert-butyl)-1-(oxetan-3-ylmethyl)-1H-pyrazol-3-yl)amino)-1-methyl-1H-benzo[d]imidazol-6-yl)oxy)pyridin-2-yl)acetamide], the Kd was less than 0.01 µM.
With `CC(=O)Nc1cc(Oc2ccc3nc(Nc4cc(C(C)(C)C)n(CC5COC5)n4)n(C)c3c2C#N)ccn1` [Example I-32, N-(4-((2-((5-(tert-butyl)-1-(oxetan-3-ylmethyl)-1H-pyrazol-3-yl)amino)-7-cyano-1-methyl-1H-benzo[d]imidazol-6-yl)oxy)pyridin-2-yl)acetamide] the Kd was less than 0.01 µM.
In the case of `CC(=O)Nc1cc(Oc2ccc3nc(Nc4cc(C(F)(F)F)n(CC5CCOCC5)n4)n(C)c3c2C#N)ccn1` [Example I-34, N-(4-((7-cyano-1-methyl-2-((1-((tetrahydro-2H-pyran-4-yl)methyl)-5-(trifluoromethyl)-1H-pyrazol-3-yl)amino)-1H-benzo[d]imidazol-6-yl)oxy)pyridin-2-yl)acetamide], the Kd is reported as less than 0.01 µM.
`CC(=O)Nc1cc(Oc2ccc3nc(Nc4cc(C(F)(F)F)n(C5CC6(COC6)C5)n4)n(C)c3c2)ccn1` [Example I-37, N-(4-((2-((1-(2-oxaspiro[3.3]heptan-6-yl)-5-(trifluoromethyl)-1H-pyrazol-3-yl)amino)-1-methyl-1H-benzo[d]imidazol-6-yl)oxy)pyridin-2-yl)acetamide] gave a Kd of less than 0.01 µM.
`CC(=O)Nc1cc(Oc2ccc3nc(Nc4cc5n(n4)CCCC5(C)C)n(C)c3c2C#N)ccn1` [Example I-41, N-(4-((7-cyano-2-((4,4-dimethyl-4,5,6,7-tetrahydropyrazolo[1,5-a]pyridin-2-yl)amino)-1-methyl-1H-benzo[d]imidazol-6-yl)oxy)pyridin-2-yl)acetamide] showed a Kd of less than 0.01 µM.
`CC(=O)Nc1cc(Oc2ccc3nc(N[C@H]4CC[C@H](C(C)(C)C)CC4)n(C)c3c2)ccn1` [Example I-51, N-(4-((2-(((1r,4r)-4-(tert-butyl)cyclohexyl)amino)-1-methyl-1H-benzo[d]imidazol-6-yl)oxy)pyridin-2-yl)acetamide] showed a Kd of 1 to 5 µM.
Compound `COCCn1cc(C(F)(F)F)cc(Nc2nc3ccc(Oc4ccnc(NC(C)=O)c4)cc3n2C)c1=O` [Example I-52] has a Kd of less than 0.01 µM.
`COCCn1cc(C(F)(F)F)cc(Nc2nc3ccc(Oc4ccnc(NC(C)=O)c4)c(C#N)c3n2C)c1=O` [Example I-53, N-(4-((7-cyano-2-((1-(2-methoxyethyl)-2-oxo-5-(trifluoromethyl)-1,2-dihydropyridin-3-yl)amino)-1-methyl-1H-benzo[d]imidazol-6-yl)oxy)pyridin-2-yl)acetamide] was tested, and the Kd was less than 0.01 µM.
Work on `CC(=O)Nc1cc(Oc2ccc3nc(Nc4cc(C(F)(F)F)cn(C)c4=O)n(C)c3c2)ccn1` [Example I-54, N-(4-((1-methyl-2-((1-methyl-2-oxo-5-(trifluoromethyl)-1,2-dihydropyridin-3-yl)amino)-1H-benzo[d]imidazol-6-yl)oxy)pyridin-2-yl)acetamide] yielded a Kd of less than 0.01 µM.
Compound `CC(=O)Nc1cc(Oc2ccc3nc(Nc4cc(C(F)(F)F)cn(C)c4=O)n(C)c3c2C#N)ccn1` [Example I-55, N-(4-((7-cyano-1-methyl-2-((1-methyl-2-oxo-5-(trifluoromethyl)-1,2-dihydropyridin-3-yl)amino)-1H-benzo[d]imidazol-6-yl)oxy)pyridin-2-yl)acetamide] has a Kd of less than 0.01 µM.
`CO[C@H]1C[C@@H](n2cc(Nc3nc4ccc(Oc5ccnc(NC(C)=O)c5)cc4n3C)cc(C(F)(F)F)c2=O)C1` [Example I-56, N-(4-((2-((1-((1s,3s)-3-methoxycyclobutyl)-6-oxo-5-(trifluoromethyl)-1,6-dihydropyridin-3-yl)amino)-1-methyl-1H-benzo[d]imidazol-6-yl)oxy)pyridin-2-yl)acetamide] showed a Kd of 1 to 5 µM.
For `CO[C@H]1C[C@@H](n2cc(Nc3nc4ccc(Oc5ccnc(NC(C)=O)c5)c(C)c4n3C)cc(C(F)(F)F)c2=O)C1` [Example I-57, N-(4-((2-((1-((1s,3s)-3-methoxycyclobutyl)-6-oxo-5-(trifluoromethyl)-1,6-dihydropyridin-3-yl)amino)-1,7-dimethyl-1H-benzo[d]imidazol-6-yl)oxy)pyridin-2-yl)acetamide], the Kd was 0.05 to 1 µM.
`CC(=O)Nc1cc(Oc2ccc3nc(Nc4cc(C5CC5)cn(C)c4=O)n(C)c3c2)ccn1` [Example I-61, N-(4-((2-((5-cyclopropyl-1-methyl-2-oxo-1,2-dihydropyridin-3-yl)amino)-1-methyl-1H-benzo[d]imidazol-6-yl)oxy)pyridin-2-yl)acetamide] showed a Kd of less than 0.01 µM.
Work on `CC(=O)Nc1cc(Oc2ccc3nc(Nc4cc(C5CC5)cn(C)c4=O)n(C)c3c2C#N)ccn1` [Example I-62, N-(4-((7-cyano-2-((5-cyclopropyl-1-methyl-2-oxo-1,2-dihydropyridin-3-yl)amino)-1-methyl-1H-benzo[d]imidazol-6-yl)oxy)pyridin-2-yl)acetamide] yielded a Kd of less than 0.01 µM.
Compound `CC(=O)Nc1cc(Oc2ccc3nc(Nc4cc(C5CC5)cn(C)c4=O)n(C)c3n2)ccn1` [Example I-63, N-(4-((2-((5-cyclopropyl-1-methyl-2-oxo-1,2-dihydropyridin-3-yl)amino)-3-methyl-3H-imidazo[4,5-b]pyridin-5-yl)oxy)pyridin-2-yl)acetamide] has a Kd of less than 0.01 µM.
With `CC(=O)Nc1cc(Oc2ccc3nc(Nc4cc(C5CC5)cn(C(C)C)c4=O)n(C)c3n2)ccn1` [Example I-65, N-(4-((2-((5-cyclopropyl-1-isopropyl-2-oxo-1,2-dihydropyridin-3-yl)amino)-3-methyl-3H-imidazo[4,5-b]pyridin-5-yl)oxy)pyridin-2-yl)acetamide] the Kd was less than 0.01 µM.
Compound `CC(=O)Nc1cc(Oc2ccc3nc(Nc4cc(C5CC5)cn(C5CCOCC5)c4=O)n(C)c3c2)ccn1` [Example I-69, N-(4-((2-((5-cyclopropyl-2-oxo-1-(tetrahydro-2H-pyran-4-yl)-1,2-dihydropyridin-3-yl)amino)-1-methyl-1H-benzo[d]imidazol-6-yl)oxy)pyridin-2-yl)acetamide] has a Kd of less than 0.01 µM.
For `CC(=O)Nc1cc(Oc2ccc3nc(Nc4cc(C5CC5)cn(CC5(CO)CC5)c4=O)n(C)c3c2)ccn1` [Example I-70, N-(4-((2-((5-cyclopropyl-1-((1-(hydroxymethyl)cyclopropyl)methyl)-2-oxo-1,2-dihydropyridin-3-yl)amino)-1-methyl-1H-benzo[d]imidazol-6-yl)oxy)pyridin-2-yl)acetamide], the Kd was less than 0.01 µM.
`CC(=O)Nc1cc(Oc2ccc3nc(Nc4cc(C5CC5)cn(Cc5ncco5)c4=O)n(C)c3c2)ccn1` [Example I-71, N-(4-((2-((5-cyclopropyl-1-(oxazol-2-ylmethyl)-2-oxo-1,2-dihydropyridin-3-yl)amino)-1-methyl-1H-benzo[d]imidazol-6-yl)oxy)pyridin-2-yl)acetamide] was tested, and the Kd was less than 0.01 µM.
For `COCCn1cc(C2CC2)cc(Nc2nc3ccc(Oc4ccnc(NC(C)=O)c4)nc3n2C)c1=O` [Example I-72, N-(4-((2-((5-cyclopropyl-1-(2-methoxyethyl)-2-oxo-1,2-dihydropyridin-3-yl)amino)-3-methyl-3H-imidazo[4,5-b]pyridin-5-yl)oxy)pyridin-2-yl)acetamide], the Kd was less than 0.01 µM.
